Assay results reported in US6767726B2, “Process for producing cis-3-hydroxy-L-proline” (Kyowa Hakko Kogyo Co., Ltd., priority 1993, dated 2004).

Molecular target: T1, L-proline-3-hydroxylase (Streptomyces sp, UniProt P96010)
T1 construct: made in house; host or cells: Streptomyces sp; TH1 (native producer, not recombinant)
T1 sequence (P96010 1-290): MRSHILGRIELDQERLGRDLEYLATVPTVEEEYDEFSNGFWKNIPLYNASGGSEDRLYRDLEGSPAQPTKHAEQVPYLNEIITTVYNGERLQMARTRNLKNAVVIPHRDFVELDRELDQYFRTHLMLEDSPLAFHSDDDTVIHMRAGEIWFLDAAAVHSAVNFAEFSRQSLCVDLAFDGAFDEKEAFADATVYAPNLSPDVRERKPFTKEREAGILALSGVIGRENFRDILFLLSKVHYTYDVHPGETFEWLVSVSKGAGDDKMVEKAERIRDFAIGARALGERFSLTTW
Assay: Substrate omission and addition tests on the enzyme reaction of pure L-proline-3-hydroxylase
Assay type: biochemical, Streptomyces sp. TH1
Details: for Relative Activity: standard = 100, 35° C., 10 minutes; for Influence on the enzyme reaction for hydroxylating L-proline at the 3-position: result in words of omission and addition tests

[1] = component not added (−) to standard reaction mixture
[2] = component added (+) at 1 mm to standard reaction mixture

SMILES	Relative Activity [1]	Influence on the enzyme reaction for hydroxylating L-proline at the 3-position	Relative Activity [2]
O=C(O)CCC(=O)C(=O)O [2-ketoglutaric acid]	0	indispensable	
[Ba+2] [Ba^++]		inhibit the reaction	42
[Co+2] [Co^++]		inhibit the reaction	13
[Cu+2] [Cu^++]		inhibit the reaction	4
[Fe+2] [Fe^++]	0	indispensable	
O=C1O[C@H]([C@@H](O)CO)C(O)=C1O [L-ascorbic acid]	25	promotes the enzyme reaction	
[Zn+2] [Zn^++]		inhibit the reaction	0
